The target of assay [1] is FcγRIIIA recombinant protein (UniProt P08637). Nature of the assay: ELISA, FcγRIIIA coated on the plate, anti-human IgG-HRP detection; the reference itself.
The target of assay [2] is Human recombinant TNF-α (human) (UniProt P01375). Nature of the assay: SPR (Biacore T200), single cycle kinetics, antibody captured on CM5 chip by anti-human Fc antibodies, TNF-α as analyte at 3.125 to 50 nM, 1:1 binding model. On the technique in general: SPR reads the build-up and loss of mass on a sensor chip optically.

Consider two substances from patent US20150344559A1.

Usually Kd stands for the equilibrium constant for the complex coming apart. For orientation: koff means the first-order rate constant of dissociation. A word on the kon: it is a measure of how fast the partners come together.

Regarding Adalimumab (Humira®) (antibody), in assay [1], the EC50, fold of increase relative to Humira (fold relative to Humira) turned out to be 1 and the Max. binding, fold of increase relative to Humira (fold relative to Humira) came to 1.
As to “Adalimumab (Humira®) (antibody; other documents disagree on this pair)”, in assay [2], the Kd turned out to be 0.0195 nM, the koff was 3.12e-05 s⁻¹ and the kon amounted to 1.61e+06 M⁻¹ s⁻¹.
